# Experimental data as given in PMC6592956, “Characterization of Porcine Hepatic and Intestinal Drug Metabolizing CYP450: Comparison with Human Orthologues from A Quantitative, Activity and Selectivity Perspective” (Scientific Reports, 2019).
# Several values for one entry are separate records, joined by “and”; a condition that tells them apart may be missing. Identical values can stand only once.
# Key:
# [1] = system: porcine hepatic CYP450 enzymes; assay: Stepwise multiple linear regression of probe activity on CYP450 protein concentrations and on other metabolites
# porcine hepatic CYP450 [2] = assay: Incubation with inhibitors: statements on all investigated reactions in porcine hepatic microsomes; type: in vitro ADME, conventional pig; details: for Inhibition of any of the investigated reactions: also at 10 times the concentration of the methods section
# porcine hepatic CYP450 [3] = system: porcine hepatic CYP450
# [4] = system: porcine hepatic CYP450 enzymes; details: for Porcine Vmax: 8 males, 8 females, 12 weeks, 3 replicates each
# [5] = system: porcine hepatic CYP450 enzymes; assay: in vitro; details: both, hybrid sow × Piétrain boar cross (conventional pig)
# CYP2C [6] = system: CYP2C
# human CYP450 = details: ref [86]–[88]; cited from earlier work
# CYP2C [7] = details: Tolbutamide 200 µM, inhibitor NA, replicates 1-3
# [8] = Dependent Variable: OH_CM, Concentration 2, with metabolites, Model 2, predictors PAR_s, OH_TB_s
# [9] = Dependent Variable: OH_CZ, Concentration 6, with metabolites, Model 1, predictor OH_TB_s
# [10] = Dependent Variable: OH_CZ, Concentration 6, with metabolites, Model 2, predictors OH_TB_s, OH_MDZ_s
# [11] = dependent OH_MDZ, Concentration 2, with metabolites, model 2, predictor PAR_s
# [12] = porcine hepatic microsomes, mean (SD)
# [13] = Dependent Variable: OH_CM, Concentration 6, with metabolites, Model 2, predictors PAR_s, OH_CZ_s
# [14] = dependent DEX, Concentration 2, with metabolites, model 1
# [15] = dependent DEX, Concentration 6, with enzymes, model 2
structure (smiles),measurement,setting,value
CCCCNC(=O)NS(=O)(=O)c1ccc(CO)cc1 [OH_TB_s],Unstandardized Coefficients B,[1]; [8],"-11,935"
same,Unstandardized Coefficients B,[1]; [9],"134,028"
same,Unstandardized Coefficients B,[1]; [10],"89,207"
OCc1ncc2n1-c1ccc(Cl)cc1C(c1ccccc1F)=NC2 [OH_MDZ],Unstandardized Coefficients B,"[1]; dependent OH_MDZ, Concentration 2, with enzymes, model 1, (Constant)","134,521"
same,Unstandardized Coefficients B,"[1]; dependent OH_MDZ, Concentration 2, with enzymes, model 1, predictor CYP3A22_s","26,246"
same,Unstandardized Coefficients B,"[1]; dependent OH_MDZ, Concentration 2, with enzymes, model 2, (Constant)","134,521"
same,Unstandardized Coefficients B,"[1]; dependent OH_MDZ, Concentration 2, with enzymes, model 2, predictor CYP2E1_s","-19,603"
same,Unstandardized Coefficients B,"[1]; dependent OH_MDZ, Concentration 2, with enzymes, model 2, predictor CYP3A22_s","38,497"
same,Unstandardized Coefficients B,"[1]; dependent OH_MDZ, Concentration 2, with metabolites, model 1, (Constant)","134,521"
same,Unstandardized Coefficients B,"[1]; dependent OH_MDZ, Concentration 2, with metabolites, model 1, predictor PAR_s","23,539"
same,Unstandardized Coefficients B,"[1]; dependent OH_MDZ, Concentration 2, with metabolites, model 2, (Constant)","134,521"
same,Unstandardized Coefficients B,"[1]; dependent OH_MDZ, Concentration 2, with metabolites, model 2, predictor OH_CM_s","-42,509"
same,Standardized Coefficients Beta,[1]; [11],"1,439"
same,Unstandardized Coefficients B,[1]; [11],"61,260"
same,Unstandardized Coefficients B,"[1]; dependent OH_MDZ, Concentration 6, with enzymes, model 1, predictor CYP3A46_s","304,669"
same,Unstandardized Coefficients B,"[1]; dependent OH_MDZ, Concentration 6, with enzymes, model 2, predictor CYP2C49_s","164,727"
same,Unstandardized Coefficients B,"[1]; dependent OH_MDZ, Concentration 6, with enzymes, model 2, predictor CYP3A46_s","280,664"
same,Unstandardized Coefficients B,"[1]; dependent OH_MDZ, Concentration 6, with metabolites, model 1, predictor PAR_s","360,122"
same,Unstandardized Coefficients B,"[1]; dependent OH_MDZ, Concentration 6, with metabolites, model 2, predictor OH_CZ_s","217,711"
same,Unstandardized Coefficients B,"[1]; dependent OH_MDZ, Concentration 6, with metabolites, model 2, predictor PAR_s","218,144"
"C=C[C@H]1C[N@@]2CC[C@H]1C[C@@H]2[C@@H](O)c1ccnc2ccc(OC)cc12 [Quinidine, quinidine]",Inhibition of any of the investigated reactions,porcine hepatic CYP450 [2],did not inhibit any of the investigated reactions
"CCN(CC)C(=S)S [Diethyldithiocarbamate, diethyldithiocarbamate]",Decrease of all reactions,porcine hepatic CYP450 [2]; inhibitor concentration increased above 20 µM,> 40%
"O=c1ccc2ccccc2o1 [CM, coumarin]",inhibition,porcine hepatic CYP450 [3],< 20%
same,Porcine Vmax,[4]; [12],303 (119.2) pmol/min/mg protein
same,Enzymes selected by regression analysis,[1]; Conc Level 2 (Table 1),CYP2A19
same,Metabolites selected by regression analysis,[1]; Conc Level 2 (Table 1),PAR OH-CZ
same,Enzymes selected by regression analysis,[1]; Conc Level 6 (Table 1),CYP2A19
same,Metabolites selected by regression analysis,[1]; Conc Level 6 (Table 1),PAR
same,Km,[5],1.3 µM
O=c1ccc2ccc(O)cc2o1 [OH_CM],"Unstandardized Coefficients B, (Constant)","[1]; Dependent Variable: OH_CM, Concentration 2, with enzymes, Model 1, predictor CYP2A19_s","84,249"
same,"Unstandardized Coefficients B, (Constant)","[1]; Dependent Variable: OH_CM, Concentration 2, with enzymes, Model 2, predictors CYP2A19_s, CYP2C33_s","84,249"
same,"Unstandardized Coefficients B, (Constant)","[1]; Dependent Variable: OH_CM, Concentration 2, with metabolites, Model 1, predictor PAR_s","84,249"
same,"Unstandardized Coefficients B, (Constant)",[1]; [8],"84,249"
same,"Unstandardized Coefficients B, (Constant)","[1]; Dependent Variable: OH_CM, Concentration 6, with enzymes, Model 1, predictor CYP2A19_s","302,082"
same,"Unstandardized Coefficients B, (Constant)","[1]; Dependent Variable: OH_CM, Concentration 6, with metabolites, Model 1, predictor PAR_s","302,082"
same,"Unstandardized Coefficients B, (Constant)",[1]; [13],"302,082"
"COc1ccc2c(c1)[C@]13CCCC[C@@H]1[C@H](C2)N(C)CC3 [DXM, Dextromethorphan]","Ratio of reaction rate dual substrates versus single substrate, TB reaction",CYP2C [6],0.82 (0.153)
same,"Activity, double substrate incubation for Dextromethorphan (different microsome pool batch)","CYP2C [6]; hybrid sow × Piétrain boar cross (conventional pig), pig",12.21 pmol/min/mg protein
same,inhibition,porcine hepatic CYP450 [3],< 20%
same,"Ratio of reaction rate dual substrates versus single substrate, CM reaction",CYP2A,0.86 (0.106)
same,"O-demethylation, times faster in pigs than in humans",[4]; pig versus human,up to 7 times
same,Porcine Vmax,[4]; [12],1592 (480.7) pmol/min/mg protein
same,"Ratio of reaction rate dual substrates versus single substrate, CZ reaction",CYP2E,0.95 (0.050)
same,"Ratio of reaction rate dual substrates versus single substrate, PH reaction",CYP1A,0.82 (0.082)
same,Enzymes selected by regression analysis,[1]; Conc Level 2 (Table 1),CYP2C33 CYP3A46 CYP1A2
same,Metabolites selected by regression analysis,[1]; Conc Level 2 (Table 1),OH-TB
same,Enzymes selected by regression analysis,[1]; Conc Level 6 (Table 1),CYP3A46 CYP1A2
same,Metabolites selected by regression analysis,[1]; Conc Level 6 (Table 1),OH-MDZ
same,Human rate of DXM-O-demethylation,human CYP450,18.0–233 pmol/min/mg protein
same,Km,[5],6.7 µM
CN1CC[C@@]23CCCC[C@@H]2[C@@H]1Cc1ccc(O)cc13 [DEX],Unstandardized Coefficients B,"[1]; dependent DEX, Concentration 2, with enzymes, model 1, (Constant)","188,676"
same,Unstandardized Coefficients B,"[1]; dependent DEX, Concentration 2, with enzymes, model 1, predictor CYP2C33_s","58,821"
same,Unstandardized Coefficients B,"[1]; dependent DEX, Concentration 2, with enzymes, model 2, (Constant)","188,676"
same,Unstandardized Coefficients B,"[1]; dependent DEX, Concentration 2, with enzymes, model 2, predictor CYP2C33_s","38,307"
same,Unstandardized Coefficients B,"[1]; dependent DEX, Concentration 2, with enzymes, model 2, predictor CYP3A46_s","38,167"
same,"Unstandardized Coefficient B, (Constant)",[1]; [14],"188,676"
same,"Unstandardized Coefficient B, OH_TB_s",[1]; [14],"53,633"
same,"Unstandardized Coefficient B, CYP3A46_s","[1]; dependent DEX, Concentration 6, with enzymes, model 1","374,350"
same,"Unstandardized Coefficient B, CYP2C33_s",[1]; [15],"189,717"
same,"Unstandardized Coefficient B, CYP3A46_s",[1]; [15],"272,379"
same,"Unstandardized Coefficient B, OH_MDZ_s","[1]; dependent DEX, Concentration 6, with metabolites, model 1","307,305"
OCc1ncc2n1-c1ccc(Cl)cc1C(c1ccccc1F)=NC2 [OH_MDZ_s],Unstandardized Coefficients B,[1]; [10],"73,483"
"Cc1ncc2n1-c1ccc(Cl)cc1C(c1ccccc1F)=NC2 [MDZ, Midazolam]","MDZ-hydroxylation rate, times lower compared to humans","[4]; pig versus human, ref [48]",2 to 3 times
same,Porcine Hill coefficient,[4]; [12],1.23 (0.089)
same,Porcine Vmax,[4]; [12],1848 (637) pmol/min/mg protein
same,Inhibition of / influence on CZ-hydroxylation by co-incubated substrate,CYP2E; microsomes,increased rate
same,Km,[5],15.3 µM
"Nc1ccc(S(=O)(=O)Nc2ccnn2-c2ccccc2)cc1 [Sulphaphenazole, sulphaphenazole]",Inhibition of any of the investigated reactions,porcine hepatic CYP450 [2],did not inhibit any of the investigated reactions
O=c1[nH]c2cc(Cl)c(O)cc2o1 [OH_CZ_s],Unstandardized Coefficients B,[1]; [13],"-85,873"
O=c1cc(-c2ccccc2)oc2c1ccc1ccccc12 [α-naphthoflavone],Inhibition of any reaction,porcine hepatic CYP450 [2]; inhibitor 0.1 µM (around Ki for human CYP1A2),did not inhibit any reaction
"CCCCNC(=O)NS(=O)(=O)c1ccc(C)cc1 [TB, tolbutamide]",inhibition,porcine hepatic CYP450 [3],< 20%
same,"Affinity, times lower than in humans","[4]; pig versus human, ref [76]",5 to 10 times
same,Porcine Vmax,[4]; [12],269 (182.1) pmol/min/mg protein
same,"Activity, incubation with inhibitors",CYP2C [7],16.69 pmol/min/mg protein and 16.51 pmol/min/mg protein and 14.42 pmol/min/mg protein
same,Km,[5]; hepatic microsomes,2080 µM
O=c1[nH]c2cc(Cl)c(O)cc2o1 [OH_CZ],"Unstandardized Coefficients B, (Constant)","[1]; Dependent Variable: OH_CZ, Concentration 2, with enzymes, Model 1, predictor CYP3A46_s","80,093"
same,"Unstandardized Coefficients B, (Constant)","[1]; Dependent Variable: OH_CZ, Concentration 2, with enzymes, Model 2, predictors CYP3A46_s, CYP2C33_s","80,093"
same,"Unstandardized Coefficients B, (Constant)","[1]; Dependent Variable: OH_CZ, Concentration 2, with metabolites, Model 1, predictor PAR_s","80,093"
same,"Unstandardized Coefficients B, (Constant)","[1]; Dependent Variable: OH_CZ, Concentration 6, with enzymes, Model 1, predictor CYP2E1_s","595,976"
same,"Unstandardized Coefficients B, (Constant)","[1]; Dependent Variable: OH_CZ, Concentration 6, with enzymes, Model 2, predictors CYP2E1_s, CYP2A19_s","595,976"
same,"Unstandardized Coefficients B, (Constant)","[1]; Dependent Variable: OH_CZ, Concentration 6, with enzymes, Model 3, predictors CYP2E1_s, CYP2A19_s, CYP2C49_s","595,976"
same,"Unstandardized Coefficients B, (Constant)",[1]; [9],"595,976"
same,"Unstandardized Coefficients B, (Constant)",[1]; [10],"595,976"
